Values quoted from earlier work in patent EP3760204A1, “MEDICAMENT FOR PREVENTION OR TREATMENT OF HUNTINGTON'S DISEASE” (Medizinische Universität Graz, priority 2019, dated 2021).

Conditions: mouse brain, Keller et al.; cited from earlier work

Which “passage of the blood-brain-barrier” value does the source give for hyperforin here?
Its value is “readily pass the blood-brain-barrier”.
